In brackets after ≈: the same amount, converted by molar mass.
How the values were obtained:
[1] = tested on: Mycobacterium tuberculosis; assay: microbe, parasite or virus in culture; details: H37Rv, 168 h
[2] = target: Bifunctional epoxide hydrolase 2 (Homo sapiens, UniProt P34913); assay: Inhibition of human recombinant soluble epoxide hydrolase using CMNPC as substrate after 10 mins by fluorescent assay

Protein sequences, listed by entry. Tags and fused reporters are not part of them.
UniProt P34913, whole entry: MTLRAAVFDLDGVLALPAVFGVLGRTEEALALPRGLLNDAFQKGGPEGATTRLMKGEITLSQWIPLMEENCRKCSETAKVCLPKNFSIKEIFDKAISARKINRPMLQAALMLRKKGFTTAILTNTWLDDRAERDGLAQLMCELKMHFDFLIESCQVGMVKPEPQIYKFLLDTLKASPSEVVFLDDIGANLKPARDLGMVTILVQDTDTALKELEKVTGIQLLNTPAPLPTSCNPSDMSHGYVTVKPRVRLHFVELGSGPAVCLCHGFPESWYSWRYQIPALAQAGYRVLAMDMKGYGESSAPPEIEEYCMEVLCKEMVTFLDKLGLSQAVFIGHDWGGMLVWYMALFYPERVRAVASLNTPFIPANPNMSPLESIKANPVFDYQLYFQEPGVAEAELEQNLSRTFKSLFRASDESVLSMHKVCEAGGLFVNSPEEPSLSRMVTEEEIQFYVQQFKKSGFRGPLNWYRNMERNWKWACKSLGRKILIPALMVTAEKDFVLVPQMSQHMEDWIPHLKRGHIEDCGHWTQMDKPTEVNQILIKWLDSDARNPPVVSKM

O=C(Nc1ccc(F)c(F)c1F)NC12CC3CC(CC(C3)C1)C2
MIC [1]: 0.4 µg/mL (≈ 1.23 µM)
IC50 [2]: 0.4 nM

From ChEMBL document CHEMBL1817626, “The structure-activity relationship of urea derivatives as anti-tuberculosis agents” (Bioorg Med Chem, 2011)
